Measured values reported in US20230338060A1, “Device and Method for Treating Osteonecrosis” (Texas Scottish Rite Hospital for Children, priority 2017, published 2023).

B1: BMP2-R: BMP2 released from the GHT hydrogel (protein, UniProt P12643 283-396, looked up)
Bone morphogenetic protein 2: QAKHKQRKRLKSSCKRHPLYVDFSDVGWNDWIVAPPGYHAFYCHGECPFPLADHLNSTNHAIVQTLVNSVNSKIPKACCVPTELSAISMLYLDENEKVVLKNYQDMVVEGCGCR
modifications: released from GHT hydrogel

Experiments:
[1] = 4 mg BMP2 per hip; cited from earlier work
[2] = 1 mg BMP2 per hip, saline as carrier; cited from earlier work
[3] = system: pig bone marrow mesenchymal cells; experiment: Osteogenic bioactivity of released BMP2 (qPCR, Alizarin red); assay type: cell-based
Experimental: (FIG. 2A) The graph showing the cumulative release profile of BMP2 from GHT hydrogel (0.75 mg BMP2 per ml of hydrogel); (FIG. 2B) The bar graph showing the total amount of detected BMP2 from the GHT hydrogel; (FIG. 2C) The bar graph showing the relative gene expression by pig bone marrow mesenchymal cells (pBMSCs) cultured for 5 days in growth medium (GM), osteogenic medium (OM), OM supplemented with BMP2 (40 ng/ml), or OM supplemented with released BMP2 (40 ng/ml) from the hydrogel (BMP2-R); (FIG. 2D) Alizarin Red staining of the pBMSCs that were cultured for 11 days in GM, OM, OM+BMP2 (40 ng/ml), and OM+BMP2-R (40 ng/ml). * represents p<0.05, when comparing with GM group; # represents p<0.05, when comparing with OM group.
In order to test the bioactivity of the released BMP2 (BMP2-R), osteogenic assays were performed using pig bone marrow mesenchymal cells (pBMMC). The cells were cultured for five days.

Molecule | occurrence of HO [1] | incidence of HO [2] | osteogenesis of pBMMC, BMP2-R vs BMP2 groups ([3]; 40 ng/ml) | gene expression for Col 1, ALP and OSX ([3]; 40 ng/ml in OM, 5 days, compared to OM and GM (p<0.0001)) | minerals, Alizarin red staining ([3]; 40 ng/ml in OM, eleven days, vs OM group)
BMP2: recombinant human bone morphogenetic protein 2, from INFUSE Bone Graft (Medtronic) | 8/66 | 4/6 |  |  | 
B1 |  |  | No significant differences | upregulation | increased minerals
